Our source for the LD50 values is patent US4225611A, “Novel n-substituted benzenesulfonamide, process for its preparation and medicaments containing it” (Choay S.A., priority 1977, dated 1980).

This data set in a line: in vivo. Conditions: mouse.

`CCN1CCCC1CNS(=O)(=O)c1cc(Cl)c(N)cc1OC` (centres unmarked) [(I), chloro-5 methoxy-2 amino-4 N-(N-ethyl methyl-2 pyrrolidino) benzenesulfonamide]: the LD50 is, setting by setting: (iv) 130 mg/kg; (po) 1000 mg/kg.

In general, LD50 refers to the dose at which mortality reaches 50%. High values mean a less toxic substance, low ones a more toxic substance.
